The results in this text go back to US10927106B2, “Benzothiazole derivatives as DYRK1 inhibitors” (PHARMASUM THERAPEUTICS AS, priority 2017, dated 2021).

Test systems include PINK; AMPK (hum); PHK; ROCK 2.
Holding throughout (conditions): 1 micromolar inhibitor concentration

With `COc1ccc2sc(-c3cncc(NC(C)=O)c3)nc2c1` [4-93, N-(5-(5-Methoxybenzo[d]thiazol-2-yl)pyridin-3-yl)acetamide], the percentage inhibition came out at 0% with PINK, 1% in the test with AMPK (hum), 0% in the test on PHK and 0% with ROCK 2.
